This series is described as follows: Stability in the dry form at +4° C. after lyophilisation (HPLC purity over time). The note with it: 250 mM in 10 mM Tris HCl pH 7.5 and 10% trehalose, lyophilised one night.

Data on one substance can be found in patent US9266902B2, “Labelling reagents having a pyridine nucleus bearing a diazomethyl function, process for synthesis of such reagents and processes for detection of biological molecules” (priority 2008, dated 2016).

As to Pyridine Diazo Ketone Biotin [PyDKB], the stability to lyophilisation entry was “perfectly stable”.
